Drawing on patent EP0632806B1 (priority 1992, dated 1993), this text covers LD50 for 1 molecule.

The series has as its system rats. Kind of series: Estimated LD50 in rats. As to the method: In order to assess whether a compound has the required pharmacological activity within the present invention, it is subjected to a series of tests. In the first of such tests, a compound is given as increasing (doubling with each dose) intravenous boluses every 8 minutes to a pentobarbital anesthetized rat. The effects of the compound on blood pressure, heart rate and the ECG are measured 30 seconds and 8 minutes after each dose. Increasing doses are given until the animal dies. The cause of death is identified as being of respiratory or cardiac origin. This test gives an indication as to whether the compound is blocking sodium channels and/or potassium channels, and in addition gives information about acute toxicity. The indices of sodium channel blockade are increasing P-R interval and QRS widening of the ECG. Potassium channel blockade results in Q-T interval prolongation of the ECG.
It is estimated that the LD50 of compound 10 in rats is 16 µmol/kg. For compound 1, the estimated LD50 values in rats is 32 µmol/kg and in mice is 27 µmol/kg. Toxic symptoms of doses exceeding what is required for antiarrhythmic activity include fall in blood pressure or heart rate, and alteration of asystole/idioventricular rhythms. […]

As a reminder, the LD50 is the dose expected to kill half of the subjects tested.

Take `CN(C(=O)Cc1cccc2occc12)[C@@H]1CC[C@]2(CCCO2)C[C@H]1N1CCCC1`: the LD50 is 16 µmol/kg.
